Consider 1 compound from patent publication US20210260008A1, “COMBINATION THERAPY FOR TREATING CANCER” (THE JOHNS HOPKINS UNIVERSITY, priority 2018, published 2021).

This assay has as its system 2208L breast tumors. Briefly: 2208L breast tumor mouse model. To be noted: mice bearing 2208L breast tumors.

As for `Nc1ncn([C@@H]2O[C@H](CO)[C@@H](O)[C@H]2O)c(=O)n1` [AZA, 4-amino-1-β-D-ribofuranozyl-s-triazin-2(1H)-one], the survival entry is on record as “no benefit in survival”.
